Laboratory results as given in ChEMBL document CHEMBL3774377 (Bioorg Med Chem, 2016).

Tests used:
[1] = system: Sodium- and chloride-dependent GABA transporter 2 (Mus musculus); experiment: Inhibition of mouse GAT3 expressed in HEK293 cells assessed as remaining [3H]GABA uptake at 100 uM preincubated for 25 mins followed by [3H]GABA/unlabeled GABA addition measured after 4 mins by liquid scintillation counting analysis
[2] = system: Sodium- and chloride-dependent betaine transporter (Mus musculus); experiment: Inhibition of mouse GAT2 expressed in HEK293 cells assessed as remaining [3H]GABA uptake at 100 uM preincubated for 25 mins followed by [3H]GABA/unlabeled GABA addition measured after 10 mins by liquid scintillation counting analysis
[3] = molecular target: T1, GABA transporter 4 (Mus musculus) (UniProt P31650); experiment: Inhibition of mouse GAT4 expressed in HEK293 cells assessed as remaining [3H]GABA uptake at 100 uM preincubated for 25 mins followed by [3H]GABA/unlabeled GABA addition measured after 4 mins by liquid scintillation counting analysis; assay type: cell-based
T1 sequence (whole entry): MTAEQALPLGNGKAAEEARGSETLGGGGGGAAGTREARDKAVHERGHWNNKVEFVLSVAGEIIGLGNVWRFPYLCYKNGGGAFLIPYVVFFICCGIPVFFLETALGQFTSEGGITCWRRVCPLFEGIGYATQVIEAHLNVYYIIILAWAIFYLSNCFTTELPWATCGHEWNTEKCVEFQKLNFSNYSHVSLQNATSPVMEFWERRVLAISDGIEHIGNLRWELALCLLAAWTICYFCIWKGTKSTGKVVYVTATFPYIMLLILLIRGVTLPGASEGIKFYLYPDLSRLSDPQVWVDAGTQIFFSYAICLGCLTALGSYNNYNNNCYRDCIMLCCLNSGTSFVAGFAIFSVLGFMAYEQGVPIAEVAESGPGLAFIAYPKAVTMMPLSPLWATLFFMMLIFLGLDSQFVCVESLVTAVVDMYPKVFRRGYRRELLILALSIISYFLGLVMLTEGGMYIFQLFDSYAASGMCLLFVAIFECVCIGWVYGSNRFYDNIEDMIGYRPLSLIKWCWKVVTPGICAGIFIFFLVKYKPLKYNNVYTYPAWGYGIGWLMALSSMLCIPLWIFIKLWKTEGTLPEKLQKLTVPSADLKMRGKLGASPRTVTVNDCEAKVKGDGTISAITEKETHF

**Q.** For `CN1CC[C@H](CCCC#Cc2ccccc2Cc2ccccc2)[C@@H](C(=O)O)C1` (racemic), which Activity [1] is on record?
**A.** 79.8%

**Q.** What about the Activity [2] of the same molecule?
**A.** 61.2%

**Q.** How did the Activity [1] turn out when `CN1CC[C@H](CC/C=C/c2ccccc2Cc2ccccc2)[C@@H](C(=O)O)C1` (racemic) was run?
**A.** 65%

**Q.** And the Activity [2]?
**A.** 91.2%

**Q.** What about the Activity [3] of the same molecule?
**A.** 65%
